Test results from patent US4301140A, “Radiopharmaceutical method for monitoring kidneys” (G. D. Searle & Co., priority 1979, dated 1981).

Key:
[1] = Scintiscan (Anger camera) monitoring of distribution of radioactivity after intravenous administration, rabbit; format: in vivo, New Zealand rabbit; design: key: -: no significant measured radioactivity; relative amounts of measured radioactivity ranging from (-) for no significant measured radioactivity to (+++) for the maximum measured radioactivity; relative amounts of measured radioactivity ranging from (-) for no significant measured radioactivity to (+++) for the maximum measured radioactivity; +++: the maximum measured radioactivity; details: i.v., 0.95 mg, 0.5 mCi
Procedure: Approximately 0.2 milliliter of a solution of the complex formed from technetium-99m and 0.95 milligram of fructose 1,6-diphosphate and prepared generally as described in Example 1 and having a radioactivity of 0.5 millicurie was administered intravenously to an anesthetized New Zealand rabbit weighing about 3 kilograms. Approximately the same volume of a solution of the complex formed from technetium-99m and 1.21 milligrams of fructose 6-phosphate prepared generally as described in Example 2, having a radioactivity of 0.81 millicurie was similarly administered to a second New Zealand rabbit of about the same weight. The injections were made using a 1 milliliter tuberculin syringe connected to a #23 gauge indwelling cannula inserted into a marginal ear vein. Each rabbit was positioned in a full ventral position for 2.5 to 3 hours during which time the disposition of the radioactivity in the rabbit in this position was monitored using a computer-augmented Anger camera. The measurements and results are discussed hereinafter, and the results of the test using the fructose 1,6-diphosphate and fructose 6-phosphate complexes are presented in Tables 1 and 2, respectively.
(§1) At various times after the aforesaid administrations of solutions of complexes of this invention, which times are indicated in Tables 1-6, scintiscan photographs and video tape recordings were taken of the aforesaid rabbit, beagles and monkeys using the Anger camera. This instrument was a Pho-Gamma LFOV Scintillation Camera System, Model 6413, fitted with a Model 3137 Vari-Back Camera, a Model 3122 Data-Store/Playback System and a Model 27851 Analog-Digital/Digital-AnalogConverter (all Searle Radiographics, Inc.). This entire system was interfaced with a Xerox 530 computer (Xerox Corp., Minneapolis, Minn.) which was programmed to record net counts per unit of time and percents of total counts in individual organs and to plot organ radioactivity versus time. The camera was operated with a 140 KeV high resolution Type II converging collimator using a 20 percent technetium-99m window. Generally 400,000 counts were accumulated on each scintiscan using both video tape and self-developing film, with the animal in the full ventral position. The photographs represented a visualization of the anatomic relationships in the kidneys.
(§2) Tables 1-6 contain semi-quantitative representations of the distribution of radioactivity in the organs of the test animals determined from the scintiscans. In Tables 1-6, (--), (+), (++) and (+++) indicate relative amounts of measured radioactivity ranging from (-) for no significant measured radioactivity to (+++) for the maximum measured radioactivity.

[2] = Scintiscan (Anger camera) monitoring of distribution of radioactivity after intravenous administration, female beagle dog; format: in vivo; design: key: -: no significant measured radioactivity; relative amounts of measured radioactivity ranging from (-) for no significant measured radioactivity to (+++) for the maximum measured radioactivity; relative amounts of measured radioactivity ranging from (-) for no significant measured radioactivity to (+++) for the maximum measured radioactivity; +++: the maximum measured radioactivity; details: i.v., 9.4 mg, 0.5 mCi
Procedure: (§3) This procedure used with the rabbits was repeated with additional anesthetized animals: two female beagle dogs and two female rhesus monkeys. In these cases, however, unlike the cases of the rabbits, the complex solutions, again prepared generally as described in Examples 1 and 2, were injected intravenously in a saphenous vein of the dogs and monkeys.
Three milliliters of a solution of the complex formed from technetium-99m and 9.4 milligrams of fructose 1,6-diphosphate and having a radioactivity of 0.5 mCi were administered to one such dog weighing 11.7 kilograms. In addition, 1.6 milliliters of a solution of the complex formed from technetium-99m and 7.3 milligrams of fructose 6-phosphate having a radioactivity of 0.84 mCi were administered to a second such dog weighing 10.5 kilograms.
as §1, §2

[3] = Scintiscan (Anger camera) monitoring of distribution of radioactivity after intravenous administration, rhesus monkey; format: in vivo; design: key: -: no significant measured radioactivity; relative amounts of measured radioactivity ranging from (-) for no significant measured radioactivity to (+++) for the maximum measured radioactivity; relative amounts of measured radioactivity ranging from (-) for no significant measured radioactivity to (+++) for the maximum measured radioactivity; +++: the maximum measured radioactivity; details: i.v., 1.1 mg, 1.2 mCi
Procedure: as §3
Similarly 0.3 milliliter of a solution of the complex formed from technetium-99m and 1.1 milligrams of fructose 1,6-diphosphate having a radioactivity of 1.2 mCi were administered to one such monkey weighing 5.1 kilograms. Also 1.5 milliliters of a solution of the complex formed from technetium-99m and 7.6 milligrams of fructose 6-phosphate having a radioactivity of 0.79 mCi were administered to a second such monkey weighing 6.7 kilograms.
as §1, §2

[4] = Plasma clearance after intravenous injection, dogs (gamma spectrometer); format: in vivo, dog (male mongrel and female beagle); details: i.v.
Procedure: Each of one male mongrel and three female beagle dogs was given at least one intravenous injection of a solution of the complex of technetium-99m and fructose 1,6-diphosphate or a solution of the complex of technetium-99m and fructose 6-phosphate. In each case about 0.5-2 milliliters of a solution of the complex having radioactivity of about 1-4 mCi and formed from 0.5-10 milligrams of complexing agent were administered. Four injections of solutions of the complex of technetium-99m and fructose 6-phosphate and 2 injections of solutions of the complex of technetium-99m and fructose 1,6-diphosphate were made. The dogs ranged in weight from 6 to 15 kilograms. Periodically blood samples were removed from the jugular vein of the dogs and collected in vacuum tubes containing the disodium salt of ethylenediamine tetracetic acid and the radioactivity of one milliliter samples of plasma were measured in a gamma spectrometer.
The gamma spectrometer employed was a Model 1185 Gamma Scintillation Spectrometer (Searle Analytic Inc., Des Plaines, Ill.). One milliliter samples of plasma or whole blood were analyzed for technetium-99m, and samples were counted for 1 minute. As determined by the computer, the curve in FIG. 2 and the five other corresponding curves (not shown) from the other tests with the dogs were the best fitting curves passing through the plots of experimentally measured radioactivities.

complex of technetium-99m and fructose 1,6-diphosphate
+: Relative distribution of complex: Kidneys ([1]; 1 min) | Relative distribution of complex: Urinary Bladder ([1]; 1 min) | Relative distribution of complex: Kidneys ([1]; 3 min) | Relative distribution of complex: Urinary Bladder ([1]; 3 min) | Relative distribution of complex: Vascular ([1]; 30 min) | Relative distribution of complex: Kidneys ([1]; 180 min) | Relative distribution of complex: Urinary Bladder ([2]; 5 min) | Relative distribution of complex: Vascular ([2]; 5 min) | Relative distribution of complex: Kidneys ([2]; 13 min) | Relative distribution of complex: Vascular ([2]; 13 min) | Relative distribution of complex: Kidneys ([2]; 40 min) | Relative distribution of complex: Kidneys ([2]; 60 min) | Relative distribution of complex: Vascular ([3]; 16 min) | Relative distribution of complex: Vascular ([3]; 27 min) | Relative distribution of complex: Vascular ([3]; 36 min) | Relative distribution of complex: Kidneys ([3]; 56 min) | Relative distribution of complex: Kidneys ([3]; 70 min)
+++: Relative distribution of complex: Urinary Bladder ([1]; 60 min) | Relative distribution of complex: Urinary Bladder ([1]; 180 min) | Relative distribution of complex: Urinary Bladder ([2]; 40 min) | Relative distribution of complex: Urinary Bladder ([2]; 60 min) | Relative distribution of complex: Urinary Bladder ([3]; 36 min) | Relative distribution of complex: Urinary Bladder ([3]; 46 min) | Relative distribution of complex: Urinary Bladder ([3]; 56 min) | Relative distribution of complex: Urinary Bladder ([3]; 70 min)
0.0565 h: half time, distributive phase of plasma clearance curve ([4]; dog, single curve of FIG. 2)
1.34 h: average half time, elimination phase ([4]; dogs, two tests, standard deviation 0.23 hour)
++: Relative distribution of complex: Vascular ([1]; 1 min) | Relative distribution of complex: Vascular ([1]; 3 min) | Relative distribution of complex: Kidneys ([1]; 30 min) | Relative distribution of complex: Urinary Bladder ([1]; 30 min) | Relative distribution of complex: Kidneys ([1]; 60 min) | Relative distribution of complex: Kidneys ([2]; 5 min) | Relative distribution of complex: Urinary Bladder ([2]; 13 min) | Relative distribution of complex: Kidneys ([3]; 6 min) | Relative distribution of complex: Urinary Bladder ([3]; 6 min) | Relative distribution of complex: Vascular ([3]; 6 min) | Relative distribution of complex: Kidneys ([3]; 16 min) | Relative distribution of complex: Urinary Bladder ([3]; 16 min) | Relative distribution of complex: Kidneys ([3]; 27 min) | Relative distribution of complex: Urinary Bladder ([3]; 27 min) | Relative distribution of complex: Kidneys ([3]; 36 min) | Relative distribution of complex: Kidneys ([3]; 46 min)
0.063 h: average half time, distributive phase ([4]; dogs, two tests, standard deviation 0.009 hour)
-: Relative distribution of complex: Vascular ([1]; 60 min) | Relative distribution of complex: Vascular ([1]; 180 min) | Relative distribution of complex: Vascular ([2]; 40 min) | Relative distribution of complex: Vascular ([2]; 60 min) | Relative distribution of complex: Vascular ([3]; 46 min) | Relative distribution of complex: Vascular ([3]; 56 min) | Relative distribution of complex: Vascular ([3]; 70 min)
0.947 h: half time, elimination phase of plasma clearance curve ([4]; dog, single curve of FIG. 2)
